Assay [1] has as its target Human CB2R (Cannabinoid receptor 2) (Homo sapiens, UniProt P34972). The assay is described as follows: CB-2 in vitro cAMP (HTRF) assay. The source says:
CB1 and CB2 receptors are Gi-coupled GPCR. Activation of CB1 and CB2 receptors results in a decrease in cAMP production. An inverse agonist of the CB1 or CB2 receptor results in the opposite effect, an increase of cAMP production. The principle of this assay is based on HTRF® technology (Homogeneous Time-Resolved Fluorescence). The method is a competitive immunoassay between native cAMP produced by cells and the cAMP labeled with the fluorophore d2. The tracer binding is quantified by a Mab anti-cAMP labeled with Eu3+TBP-NHS Cryptate (supplied as part of the assay kit). The specific signal (i.e. energy transfer) is inversely proportional to the concentration of cAMP in the standard or sample.
Human CB1R (Cannabinoid receptor 1) was stably transfected in HEK-293 cells (DiscoveRx, cat: 93-0200C1). Human CB2R (Cannabinoid receptor 2) was stably transfected in HEK-293 cells (DiscoveRx, cat: 93-0201C1). Cell cultures were maintained in media: DMEM (Invitrogen Cat#12430-054) supplemented with 10% HI FBS (Invitrogen Cat#16140-071), 1% L-glutamine (Invitrogen Cat#25030-081), 0.2 mg/ml Hygromycin B (Invitrogen Cat#10687-010), 600 μg/mL G418 (Invitrogen Cat#10131-035), and 1× Penn/Strep (Invitrogen 15140-122). After cell expansion, aliquots were cryo-stored in media containing 5% DMSO (Pierce Cat#20684).
One day prior to experiments media was warmed to 37° C. and the cryo-stored cells were thawed in a 37° C. water bath. The cells were then added to media (10× volume) and the mixture was centrifuged at 1000 RPM for 5 min. The supernate was removed and the cells were re-suspended in media. A sample of the cell suspension was evaluated on a Cedex XS automated cell counter (Innovatis Systems) to determine viable cells/ml. Additional media was added to the cells to achieve a final cell density of 4E5 cells/mL. The cells were then plated into 384 well PDL white solid bottom plates (Greiner, Cat#781945) at 20 μL per well using a Multidrop (Thermo Scientific). Cells were removed from Row P (location of cAMP standards). Two columns of cells were plated into a clear bottom 384 well PDL coated plate (Greiner, Cat#781944) to view confluence the day of the assay. The cell plates were lidded and stored for 15 minutes in a hood, then transferred to an incubator (37° C., 5% CO2, 95% humidity) overnight.
DMSO was added to all wells of 384 well V bottom polystyrene plate (Greiner, Cat#781280) except to columns 1 and 13, rows O and P and wells M13-M23 and N13-N23. Test compounds (60 μL, 10 mM) were added to Column 1 and 13 (A1 through N1 and A13 through L13). Test compounds were serially diluted 1/3 by transferring and mixing 20 μl sample with 40 μL DMSO.
DMSO (40 μL) was added to wells of 384 well V bottom polystyrene plate: O2 through O11, M14 through M23, N14 through N23, and O14 through O23. AM630 (also known as [6-iodo-2-methyl-1-[2-(4-morpholinyl)ethyl]-1H-indol-3-yl](4-methoxyphenyl)-methanone, Cayman Chemical, Cat#10006974) (60 μL, 10 mM) was added to O1; and 1-(2,4-dichlorophenyl)-7-[(4-fluorophenyl)methylene]-4,5,6,7-tetrahydro-N-1-piperidinyl-1H-benzimidazole-3-carboxamide (60 μL, 10 mM) was added to N13. The control was serially diluted 1/3 by transferring and mixing 20 μl sample with 40 μL DMSO. This process resulted 11 doses per control, 10 mM to […].
Cells plated the day prior to the assay in clear bottom plates were viewed on an inverse microscope to ensure confluency in the range of 60-75%. […]
A general note: Time-resolved FRET reads energy transfer from a long-lived donor to a nearby acceptor.

By UniProt entry, the sequences of proteins in these tests, tags left out.
UniProt P34972, whole entry: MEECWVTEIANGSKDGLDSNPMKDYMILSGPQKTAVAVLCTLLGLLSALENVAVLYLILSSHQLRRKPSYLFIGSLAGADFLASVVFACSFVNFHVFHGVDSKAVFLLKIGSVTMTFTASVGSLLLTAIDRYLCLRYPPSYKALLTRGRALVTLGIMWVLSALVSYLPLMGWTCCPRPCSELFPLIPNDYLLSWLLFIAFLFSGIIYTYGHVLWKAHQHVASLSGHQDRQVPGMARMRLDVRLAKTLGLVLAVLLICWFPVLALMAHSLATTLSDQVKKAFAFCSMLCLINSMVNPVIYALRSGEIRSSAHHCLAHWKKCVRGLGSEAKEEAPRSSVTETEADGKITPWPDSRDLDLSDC
UniProt P21554, whole entry: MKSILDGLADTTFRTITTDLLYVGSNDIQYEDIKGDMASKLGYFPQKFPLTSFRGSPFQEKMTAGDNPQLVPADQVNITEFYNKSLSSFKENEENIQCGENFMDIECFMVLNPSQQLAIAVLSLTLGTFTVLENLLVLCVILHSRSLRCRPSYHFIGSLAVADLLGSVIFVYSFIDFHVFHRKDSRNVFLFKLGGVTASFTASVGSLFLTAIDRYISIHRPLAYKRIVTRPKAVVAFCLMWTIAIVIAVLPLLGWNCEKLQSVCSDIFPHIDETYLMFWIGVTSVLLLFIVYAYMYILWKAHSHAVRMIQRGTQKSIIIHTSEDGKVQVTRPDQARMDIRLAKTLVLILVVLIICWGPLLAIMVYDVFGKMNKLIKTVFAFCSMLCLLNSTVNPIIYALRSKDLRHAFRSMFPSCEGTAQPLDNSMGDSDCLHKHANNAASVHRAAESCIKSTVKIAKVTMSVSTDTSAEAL

The target in assay [2] is Human CB1R (Cannabinoid receptor 1) (Homo sapiens, UniProt P21554). Kind of assay: CB-1 in vitro cAMP (HTRF) assay.
[3] abbreviates: read-out: CB2 HEK_cAMP EC50, HEK cells, 250 nM forskolin, mean where tested more than once.
Where [4] appears, read: read-out: CB1 HEK_cAMP EC50, HEK cells, 250 nM forskolin, mean where tested more than once.
Where [5] appears, read: read-out: CB2 HEK_cAMP EC50, HEK cells, 250 nM forskolin, mean where tested more than once, tested form: trifluoroacetate.
[6] abbreviates: read-out: CB1 HEK_cAMP EC50, HEK cells, 250 nM forskolin, mean where tested more than once, tested form: trifluoroacetate.

In patent US20190031618A1, “BENZIMIDAZOLE DERIVATIVES USEFUL AS CB-1 INVERSE AGONISTS” (Janssen Pharmaceutica NV, priority 2015, published 2019) one finds EC50 data, which are given here for 23 molecules.

pEC50: −log10 of the molar value. Where two headings read alike, the source gives them in different places.

For the molecule `CC(Cn1c(C2CC2)nc2ccc(C(c3ccc(Cl)cc3)c3nccs3)cc21)c1ccc(Cl)cc1` (centres unmarked), the pEC50 in assay [1] (setting [3]) is 5.14; in assay [2] (setting [4]) it was 6.59.

With `CCCc1nc2ccc(C(c3ccc(Cl)cc3)c3nccs3)cc2n1C1CC2CCC(C1)N2C(=O)OCC` (centres unmarked), the results for the pEC50 in assay [1] (setting [3]) and in assay [2] (setting [4]) were under 5.00 and 5.36, respectively.

Regarding `O=C(O)CCNC(=O)c1cccc(S(=O)(=O)N2CCC(n3c(C4CC4)nc4ccc(C(c5ccc(Cl)cc5)c5ccc(Cl)cc5)cc43)CC2)c1`, the pEC50 in assay [1] (setting [3]) is 5.12; in assay [2] (setting [4]), 6.85.

Turning to `O=C(O)c1ccc(S(=O)(=O)N2CC(n3c(C4CC4)nc4ccc(C(c5ccc(Cl)cc5)c5ccc(Cl)cc5)cc43)C2)cc1`, the values for the pEC50 in assay [1] (setting [3]) and in assay [2] (setting [4]) were 5.05 and 7.19, respectively.

As for `CC(Cc1ccc(Cl)cc1)n1c(C2CC2)nc2ccc(C(c3ccc(Cl)cc3)c3nccs3)cc21` (centres unmarked), the results for the pEC50 in assay [1] (setting [3]) and in assay [2] (setting [4]) were under 5.00 and 6.62, respectively.

Turning to `C[C@H](Cn1c(C2CC2)nc2ccc(C(c3ccccc3)c3ccc(Cl)cc3)cc21)c1ccccc1` (some centres unmarked), the pEC50 was under 5.00 in assay [1] (setting [3]) and 6.39 in assay [2] (setting [4]).

As for `O=C(O)c1cccc(CN2CCC(n3c(C4CC4)nc4ccc(C(c5ccc(Cl)cc5)c5ccc(Cl)cc5)cc43)C2)c1` (centres unmarked), the pEC50 in assay [1] (setting [3]) was 5.16; in assay [2] (setting [4]), 6.44.

With `O=S(=O)(N1C2CCC1CC(n1cnc3ccc(C(c4ccc(Cl)cc4)c4nccs4)cc31)C2)C(F)(F)F` (centres unmarked), the pEC50 in assay [1] (setting [3]) was under 5.00; in assay [2] (setting [4]) it was 7.46.

Regarding `O=S(=O)(N1C2CCC1CC(n1c(C3CC3)nc3ccc(C(c4ccc(Cl)cc4)c4nccs4)cc31)C2)C(F)(F)F` (centres unmarked), the pEC50 in assay [2] (setting [4]) was under 5.00.

Regarding `CC(Cn1c(CC(F)(F)F)nc2ccc(C(c3ccc(Cl)cc3)c3nccs3)cc21)c1ccc(Cl)cc1` (centres unmarked), the pEC50 was under 5.00 in assay [1] (setting [3]) and 5.93 in assay [2] (setting [4]).

On to `CC(C)Cc1nc2ccc(C(c3ccc(Cl)cc3)c3nccs3)cc2n1C1CC2CCC(C1)N2S(=O)(=O)C(F)(F)F` (centres unmarked), for which, in assay [2] (setting [4]), the pEC50 is under 5.00.

Turning to `NCCc1nc2ccc(C(c3ccc(Cl)cc3)c3ccc(Cl)cc3)cc2n1C1CCN(Cc2cccc(C(=O)O)c2)CC1`, the pEC50 is under 5.00 in assay [1] (setting [5]) and 7.45 in assay [2] (setting [6]).

As for `CCc1nc2ccc(C(c3ccc(Cl)cc3)c3nccs3)cc2n1CC(O)c1ccc(Cl)cc1` (centres unmarked), the values for the pEC50 in assay [1] (setting [3]) and in assay [2] (setting [4]) were under 5.00 and 6.50, respectively.

Take `C[C@H](Cn1c(C2CC2)nc2ccc(C(c3ccccc3)c3ccccc3)cc21)c1ccccc1`: the pEC50 in assay [1] (setting [3]) was under 5.00; in assay [2] (setting [4]), 5.55.

As for `O=S(=O)(c1ccc(Cl)cc1)N1CCC(n2c(C3CC3)nc3ccc(C(c4ccc(Cl)cc4)c4ccc(Cl)cc4)cc32)CC1`, the pEC50 is under 5.00 in assay [1] (setting [3]) and 8.33 in assay [2] (setting [4]).

With `CCc1nc2ccc(C(c3ccc(Cl)cc3)c3ccc(Cl)cc3)cc2n1C(C)Cc1ccc(Cl)cc1` (racemic), the pEC50 in assay [1] (setting [3]) is under 5.00; in assay [2] (setting [4]) it was 7.42.

Regarding `O=C(O)c1ccc(N2CCC(n3c(C4CC4)nc4ccc(C(c5ccc(Cl)cc5)c5ccc(Cl)cc5)cc43)CC2)cc1`, the values for the pEC50 in assay [1] (setting [3]) and in assay [2] (setting [4]) were 5.44 and 6.54, respectively.

As to `CC(C)c1nc2ccc(C(c3ccc(Cl)cc3)c3nccs3)cc2n1C1CC2CCC(C1)N2S(=O)(=O)C(F)(F)F` (centres unmarked), in assay [2] (setting [4]), the negative-log EC50 (pEC50) is under 5.00.

Regarding `Cc1nc2ccc(C(c3ccc(Cl)cc3)c3nccs3)cc2n1C1CC2CCC(C1)N2S(=O)(=O)C(F)(F)F` (centres unmarked), in assay [2] (setting [4]), the pEC50 is under 5.00.

On to `O=S(=O)(N1C2CCC1CC(n1c(-c3ccccn3)nc3ccc(C(c4ccc(Cl)cc4)c4nccs4)cc31)C2)C(F)(F)F` (centres unmarked), for which the pEC50 in assay [2] (setting [4]) is under 5.00.

For `CCOC(=O)N1C2CCC1CC(n1c(C)nc3ccc(C(c4ccc(Cl)cc4)c4nccs4)cc31)C2` (centres unmarked), the pEC50 in assay [1] (setting [3]) and in assay [2] (setting [4]) was under 5.00 in each case.

As to `CCOC(=O)N1C2CCC1CC(n1c(-c3ccccn3)nc3ccc(C(c4ccc(Cl)cc4)c4nccs4)cc31)C2` (centres unmarked), the pEC50 in assay [1] (setting [3]) and in assay [2] (setting [4]) was under 5.00 each time.

On to `COC(=O)CCNC(=O)c1ccc(S(=O)(=O)N2CCC(n3c(C4CC4)nc4ccc(C(c5ccc(Cl)cc5)c5ccc(Cl)cc5)cc43)CC2)cn1`, for which the values for the pEC50 in assay [1] (setting [5]) and in assay [2] (setting [6]) were under 5.00 and 7.56, respectively.

In general, pEC50 refers to the EC50 on a negative log10 scale, so that one unit is a factor of ten.
